Values quoted from earlier work in PMC4422956 (EJNMMI Research, 2014).

Protein sequences, listed by entry. Tags and fused reporters are not part of them. Lines headed by an entry give the natural chain unless they say otherwise; changes in a name come on top.
UniProt P14416, whole entry: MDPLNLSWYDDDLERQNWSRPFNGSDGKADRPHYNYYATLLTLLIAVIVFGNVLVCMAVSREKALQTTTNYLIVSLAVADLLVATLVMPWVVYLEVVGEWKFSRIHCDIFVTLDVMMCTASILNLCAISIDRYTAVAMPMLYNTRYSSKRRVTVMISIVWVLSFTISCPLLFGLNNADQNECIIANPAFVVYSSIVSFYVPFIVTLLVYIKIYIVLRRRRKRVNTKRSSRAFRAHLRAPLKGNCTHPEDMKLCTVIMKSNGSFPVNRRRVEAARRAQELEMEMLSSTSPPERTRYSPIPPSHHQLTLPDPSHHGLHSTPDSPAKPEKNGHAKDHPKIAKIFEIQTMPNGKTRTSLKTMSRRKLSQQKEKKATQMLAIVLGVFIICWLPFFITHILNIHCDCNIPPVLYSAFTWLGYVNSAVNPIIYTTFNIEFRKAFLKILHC

Biological target: T1, human DA D2L receptor (Homo sapiens, UniProt P14416)
T1 construct: gene DRD2; full-length D2L stably expressed in HEK 293 cells
Assay: 3H-spiperone radioligand binding, membranes
Conditions: high-affinity state; marked as published earlier by the same authors (ref […]); cited from earlier work

Oc1ccc2c(c1)O[C@@H](CNCc1ccc(I)cc1)CC2 [11a, (R)N-[7-hydroxychroman-2-yl]-methyl 4-iodobenzyl amine]
pK i D 2 -high: 8.69
